One experiment deals with human recombinant Btk (Homo sapiens (Human), UniProt Q06187). The experiment is described as follows: Human Recombinant Btk Enzyme Assay. The conditions noted are these: human recombinant Btk 1 nM, ATP 20 μM. Type of experiment: biochemical.
For another experiment, the target named is Jak2 tyrosine kinase (Homo sapiens (Human), UniProt O60674). In words: Jak2 Tyrosine Kinase Assay. Type of experiment: biochemical. The conditions noted are these: selectivity for Btk over Jak2; larger value = more selective for Btk. As for the experimental part: Jak2 Tyrosine Kinase Assay
Jak2 signaling occurs thru EPO and TPO, which control erythrocyte and platelet proliferation, respectively. Thus, inhibition of Jak2 tyrosine kinase can potentially lead to side-effects in the clinic. Btk inhibitors with improved selectivity over Jak2 tyrosine kinase are desired in order to minimize off target side-effects related to the inhibition of Jak2 tyrosine kinase.
The assays were performed in V-bottom 384-well plates. […] The reaction was initiated by the combination of Jak2 tyrosine kinase with substrates and test compounds. The reaction mixture was incubated at room temperature for 60 minutes and terminated by adding 45 μL of 35 mM EDTA to each sample. The reaction mixture was analyzed on the Caliper LABCHIP® 3000 by electrophoretic separation of the fluorescent substrate and phosphorylated product. […] The final concentration of reagents in the assays is ATP, 30 μM; Jak2 fluorescent peptide, 1.5 μM; Jak2, 1 nM; and DMSO, 1.6%. […] Compounds were dissolved at 10 mM in DMSO and evaluated at eleven concentrations, each in duplicate. IC50 values were derived by non-linear regression analysis.

By UniProt entry, the sequences of proteins in these tests, tags left out. Where a name states a change or a piece, a line headed by the entry shows the natural chain unless it says otherwise.
UniProt Q06187: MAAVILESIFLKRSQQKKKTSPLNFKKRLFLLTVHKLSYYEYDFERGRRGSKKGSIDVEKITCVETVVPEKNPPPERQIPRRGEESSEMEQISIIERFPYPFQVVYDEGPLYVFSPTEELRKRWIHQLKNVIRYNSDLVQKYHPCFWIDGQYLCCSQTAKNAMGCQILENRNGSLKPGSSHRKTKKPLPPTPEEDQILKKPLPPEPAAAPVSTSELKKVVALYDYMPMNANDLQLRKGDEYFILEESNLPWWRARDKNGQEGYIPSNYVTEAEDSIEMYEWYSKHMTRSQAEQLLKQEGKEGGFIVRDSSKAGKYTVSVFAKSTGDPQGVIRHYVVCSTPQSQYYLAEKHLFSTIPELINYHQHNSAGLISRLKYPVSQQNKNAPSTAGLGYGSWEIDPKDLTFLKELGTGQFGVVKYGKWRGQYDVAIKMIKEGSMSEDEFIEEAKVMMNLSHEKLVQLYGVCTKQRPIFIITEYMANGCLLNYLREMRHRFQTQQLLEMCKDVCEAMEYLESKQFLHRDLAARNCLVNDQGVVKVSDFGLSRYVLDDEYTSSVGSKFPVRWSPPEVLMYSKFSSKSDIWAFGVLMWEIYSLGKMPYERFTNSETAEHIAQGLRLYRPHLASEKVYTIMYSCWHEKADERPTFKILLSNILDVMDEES
UniProt O60674: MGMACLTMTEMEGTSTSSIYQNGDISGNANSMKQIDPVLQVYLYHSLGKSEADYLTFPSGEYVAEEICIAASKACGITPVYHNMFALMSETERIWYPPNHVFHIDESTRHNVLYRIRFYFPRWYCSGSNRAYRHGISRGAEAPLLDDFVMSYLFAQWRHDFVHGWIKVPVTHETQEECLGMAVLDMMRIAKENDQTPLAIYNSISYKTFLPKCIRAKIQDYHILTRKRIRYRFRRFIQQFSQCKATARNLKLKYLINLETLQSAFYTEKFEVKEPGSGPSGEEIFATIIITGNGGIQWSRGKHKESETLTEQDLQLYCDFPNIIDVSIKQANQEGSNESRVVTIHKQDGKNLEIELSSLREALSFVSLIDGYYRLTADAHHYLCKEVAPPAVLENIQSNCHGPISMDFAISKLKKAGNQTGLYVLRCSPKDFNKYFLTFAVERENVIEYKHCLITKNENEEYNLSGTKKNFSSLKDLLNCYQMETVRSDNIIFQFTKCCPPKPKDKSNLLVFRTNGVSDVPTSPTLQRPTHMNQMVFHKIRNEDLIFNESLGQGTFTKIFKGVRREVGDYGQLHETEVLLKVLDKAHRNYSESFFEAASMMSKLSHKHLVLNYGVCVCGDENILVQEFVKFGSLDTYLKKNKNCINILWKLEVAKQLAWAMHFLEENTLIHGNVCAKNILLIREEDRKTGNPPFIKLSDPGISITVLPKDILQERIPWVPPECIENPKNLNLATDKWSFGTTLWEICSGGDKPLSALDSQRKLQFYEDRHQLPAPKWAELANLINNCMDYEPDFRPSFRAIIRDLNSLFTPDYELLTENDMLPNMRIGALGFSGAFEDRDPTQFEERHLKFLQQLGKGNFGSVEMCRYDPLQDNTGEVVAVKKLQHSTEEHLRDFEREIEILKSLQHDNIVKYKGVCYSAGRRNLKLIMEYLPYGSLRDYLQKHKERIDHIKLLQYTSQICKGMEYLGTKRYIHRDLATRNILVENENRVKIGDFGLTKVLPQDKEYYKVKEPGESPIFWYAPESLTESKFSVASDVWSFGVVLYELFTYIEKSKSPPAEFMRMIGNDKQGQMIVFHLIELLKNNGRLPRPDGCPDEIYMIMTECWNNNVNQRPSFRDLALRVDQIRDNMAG

With `Cc1c(-c2ccc(C(N)=O)c3[nH]c4cc(C(C)(C)O)ccc4c23)cccc1-n1c(=O)c2cccc(F)c2n(C)c1=O` (atropisomer, axis not shown) [Example 3, 4-(3-(S)-(8-Fluoro-1-methyl-2,4-dioxo-1,2-dihydroquinazolin-3(4H)-yl)-2-methylphenyl)-7-(2-hydroxypropan-2-yl)-9H-carbazole-1-carboxamide], the IC50 (commonly the concentration that gives 50% inhibition) on human recombinant Btk came to 2.3 nM. For the same molecule, the “Ratio of Jak2/Btk IC50 values” on Jak2 tyrosine kinase is given as 520.

For the origin of these results see patent US9714234B2, “Carbazole carboxamide compounds” (Bristol-Myers Squibb Company, priority 2013, dated 2017).
